ChEMBL document CHEMBL3826914, “Selective photodepletion of malignant T cells in extracorporeal photopheresis with selenorhodamine photosensitizers” (Bioorg Med Chem, 2016)

Tested on: HuT78
Test: Ratio of drug uptake in human HUT78 cells in presence of verapamil to drug uptake in human HUT78 cells in absence of verapamil at 2 x 10^-7M after 1 hr by flow cytometric analysis
Conditions: hut78, 1 h, 0.2 µM

| SMILES | Ratio |
| --- | --- |
| O=C(c1ccc(C2=c3cc4c5c(c3[Se]c3c2cc2c6c3CCCN6CCC2)CCC[N+]=5CCC4)s1)N1CCCCC1.[Cl-] | 1.13 |
| S=C(c1ccc(C2=c3cc4c5c(c3[Se]c3c2cc2c6c3CCCN6CCC2)CCC[N+]=5CCC4)s1)N1CCCCC1.[Cl-] | 1.17 |
